Experimental data: ChEMBL document CHEMBL3997813, “Selective inhibition of monoamine oxidase A by purpurin, an anthraquinone” (Bioorg Med Chem Lett, 2017)

Organism: Homo sapiens
Assay: Selectivity index, ratio of IC50 for recombinant human MAO-B to IC50 for recombinant human MAO-A

- Ratio IC50: > 1.99
Structure (SMILES): O=C1c2ccccc2C(=O)c2c1ccc(O)c2O [ATHRAQUINONES A]
